The data set relates to panel of human tumor cell lines. Nature of the data set: Average cytotoxic activity over the cell panel (MTT) compared with reference drugs. The note with it: on average over the cell panel. The procedure: Briefly, depending upon the growth characteristics of the cell line, 3-8×10^3 cells well^−1, were seeded in 96-well microplates in growth medium (100 μL) and then incubated at 37° C. in a 5% carbon dioxide atmosphere. After 24 h, the medium was removed and replaced with a fresh one containing the compound to be studied, at the appropriate concentration, dissolved in 0.9% sodium chloride solution just before use. Triplicate cultures were established for each treatment. After 72 h, each well was treated with 10 μL of a 5 mg mL^−1 MTT saline solution and, after 5 h of incubation, 100 μL of a sodium dodecylsulfate (SDS) solution in 0.01 M HCl were added. After an overnight incubation, the inhibition of cell growth induced by the tested complexes was determined by measuring the absorbance of each well at 570 nm using a Bio-Rad 680 microplate reader. Mean absorbance for each drug dose was expressed as percentage of the control and plotted vs. drug concentration. Dose-response curves were fitted and IC50 values were calculated with four parameter logistic model (4PL).
The cytotoxicity was evaluated by means of the MTT test for 72 h treatment with increasing concentrations of the tested compounds.
Cytotoxic activity was examined against a panel of human tumor cell lines. […] The growth inhibitory effect was evaluated by means of MTT test. […] SD=standard deviation, -=not detected.

The results in this text go back to US20240239814A1, “Complexes Of CU(I) As Antitumor Agents” (priority 2021, published 2024).

For “Bis[tris(phenylphosphine)] copper(I) nitrate [Compound 1]”, the “average cytotoxic activity relative to cisplatin” value (times more effective than cisplatin) was found to be 3.9 times. For the same substance, the “average cytotoxic activity relative to oxaliplatin” value (times more effective than oxaliplatin) came out at 3.1 times.
